Data taken from patent publication US9512105B2, “1-substituted 4-arylpiperazine as kappa opioid receptor antagonists” (RESEARCH TRIANGLE INSTITUTE, priority 2011, dated 2016).

Chains of the proteins cited; added tags and fusions are not shown. Lines headed by an entry give the natural chain unless they say otherwise; changes in a name come on top.
UniProt P41145: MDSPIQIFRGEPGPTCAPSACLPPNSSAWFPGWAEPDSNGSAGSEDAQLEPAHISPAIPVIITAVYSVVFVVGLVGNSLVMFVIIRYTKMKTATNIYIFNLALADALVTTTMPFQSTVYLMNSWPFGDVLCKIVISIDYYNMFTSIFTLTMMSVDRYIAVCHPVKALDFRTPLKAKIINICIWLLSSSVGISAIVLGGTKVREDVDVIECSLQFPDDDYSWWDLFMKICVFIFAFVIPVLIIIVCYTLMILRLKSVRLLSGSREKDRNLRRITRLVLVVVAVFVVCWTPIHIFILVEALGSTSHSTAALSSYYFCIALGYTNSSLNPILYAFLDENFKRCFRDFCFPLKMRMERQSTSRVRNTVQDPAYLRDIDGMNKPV
UniProt P35372, whole entry: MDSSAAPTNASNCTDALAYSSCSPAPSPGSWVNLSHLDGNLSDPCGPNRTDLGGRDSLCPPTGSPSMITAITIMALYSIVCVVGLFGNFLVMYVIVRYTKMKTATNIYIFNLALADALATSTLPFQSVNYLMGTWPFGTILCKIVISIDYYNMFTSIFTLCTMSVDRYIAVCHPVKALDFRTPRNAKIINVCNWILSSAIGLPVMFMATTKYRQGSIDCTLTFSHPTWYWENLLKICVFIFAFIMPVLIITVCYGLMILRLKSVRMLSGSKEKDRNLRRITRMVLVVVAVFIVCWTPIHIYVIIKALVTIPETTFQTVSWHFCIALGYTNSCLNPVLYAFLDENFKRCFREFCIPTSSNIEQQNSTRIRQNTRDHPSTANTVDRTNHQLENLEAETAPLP

How the values were obtained:
Assay type in all cases: biochemical
[1] = molecular target: T1, cloned human κ-opioid receptor (Homo sapiens, UniProt P41145); test: Inhibition of U69,593-stimulated [35S]GTPγS binding; settings: antagonism of U69,593-stimulated [35S]GTPγS binding, read-out: κ, U69,593 Ke
T1 construct: expressed in transfected cells
Excerpt: (§1) Measures of opioid receptor antagonism and specificity were obtained by monitoring the ability of selected test compounds to inhibit stimulation of [^35S]GTPγS binding produced by the selective agonists (D-Ala^2,MePhe^4,Gly-ol^5)enkephalin (DAMGO, μ receptor) cyclo[D-Pen^2,D-Pen^5]enkephalin (DPDPE, δ) and 5,7,8-(−)-N-methyl-N-[7-(1-pyrrolidinyl)-1-oxaspiro[4,5]dec-8-yl]benzeneacetamide (U69,593, κ) in cloned human receptors.

[2] = molecular target: T2, cloned human δ-opioid receptor (Homo sapiens, UniProt P41143); test: Inhibition of DPDPE-stimulated [35S]GTPγS binding; settings: antagonism of DPDPE-stimulated [35S]GTPγS binding, read-out: δ, DPDPE Ke
T2 construct: expressed in transfected cells
Excerpt: as §1

[3] = molecular target: T3, cloned human μ-opioid receptor (Homo sapiens, UniProt P35372); test: Inhibition of DAMGO-stimulated [35S]GTPγS binding; settings: antagonism of DAMGO-stimulated [35S]GTPγS binding, read-out: μ, DAMGO Ke
T3 construct: expressed in transfected cells
Excerpt: as §1

Work on Cc1ccc(O)c(Oc2ccc(C(=O)N[C@H](CN3CCN(c4cccc(O)c4)[C@@H](C)C3)C(C)C)cc2)c1.Cl.Cl [Compound 6m, 4-(2-Hydroxy-5-methylphenoxy)-N-[(2S)-1-[(3S)-4-(3-hydroxyphenyl)-3-methylpiperazin-1-yl]-3-methylbutan-2-yl]benzamide Dihydrochloride] yielded a Kb [1] of 0.61 ± 0.27 nM, a Kb [2] of 93 ± 27 nM and a Kb [3] of 65 ± 18 nM.
